Data reported in PMC6104465, “Synthesis and in vitro and in vivo evaluation of urea-based PSMA inhibitors with increased lipophilicity” (EJNMMI Research, 2018).

By UniProt entry, the sequences of proteins in these tests, tags left out. Residues count along the entry.
UniProt P02768, 25-609: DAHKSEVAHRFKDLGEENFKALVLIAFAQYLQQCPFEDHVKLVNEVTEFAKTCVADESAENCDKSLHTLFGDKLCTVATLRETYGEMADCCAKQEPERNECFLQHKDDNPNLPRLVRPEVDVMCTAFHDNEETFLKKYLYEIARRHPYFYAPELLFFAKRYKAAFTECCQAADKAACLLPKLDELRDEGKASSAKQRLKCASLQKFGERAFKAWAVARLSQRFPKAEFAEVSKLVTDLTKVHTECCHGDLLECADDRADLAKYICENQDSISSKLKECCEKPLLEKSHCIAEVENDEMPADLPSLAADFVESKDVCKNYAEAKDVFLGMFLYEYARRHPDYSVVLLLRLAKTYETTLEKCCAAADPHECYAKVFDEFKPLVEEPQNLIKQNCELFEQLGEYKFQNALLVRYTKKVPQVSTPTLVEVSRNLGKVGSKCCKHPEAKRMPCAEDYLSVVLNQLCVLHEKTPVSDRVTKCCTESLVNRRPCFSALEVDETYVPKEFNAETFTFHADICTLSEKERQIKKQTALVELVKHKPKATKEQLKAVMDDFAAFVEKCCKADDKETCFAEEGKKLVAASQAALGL

Columns and labels:
human serum albumin [1] = biological target: T1, human serum albumin (Homo sapiens, UniProt P02768); test: human serum albumin binding, HPLC on Chiralpak HSA column; assay type: in vitro ADME; conditions: calibration reference substances; logarithmic K from the literature HSA binding; ref [3, 4]
T1 construct: purchased Daicel Chemical Industries, purchased from Chiral Technologies Europe (Illkirch, France) Chiralpak HSA (5 μm, 50 × 3 mm)

human serum albumin [2] = biological target: T1, human serum albumin; set-up: method as in Valko et. al. or Yamazaki et al. [3, 4]; conditions: calibration reference substances; ref Valko et. al. or Yamazaki et al. [3, 4]; cited from earlier work

Log K HSA (human serum albumin [1]): 0.46
SMILES: NC(=O)N1c2ccccc2C=Cc2ccccc21 [Carbamazepine]
Lit. HSA% (literature value of human serum albumin binding) (human serum albumin [2]): 75.00%
